From paper PMC11639629, “Synthesis and Biological Evaluation of Deoxycyclophellitols as Human Retaining β‐Glucosidase Inhibitors” (Chemistry (Weinheim an Der Bergstrasse, Germany), 2024)

Amino acid sequences for entries named in this document (tags omitted). Residues count along the entry.
UniProt Q9H227, whole entry: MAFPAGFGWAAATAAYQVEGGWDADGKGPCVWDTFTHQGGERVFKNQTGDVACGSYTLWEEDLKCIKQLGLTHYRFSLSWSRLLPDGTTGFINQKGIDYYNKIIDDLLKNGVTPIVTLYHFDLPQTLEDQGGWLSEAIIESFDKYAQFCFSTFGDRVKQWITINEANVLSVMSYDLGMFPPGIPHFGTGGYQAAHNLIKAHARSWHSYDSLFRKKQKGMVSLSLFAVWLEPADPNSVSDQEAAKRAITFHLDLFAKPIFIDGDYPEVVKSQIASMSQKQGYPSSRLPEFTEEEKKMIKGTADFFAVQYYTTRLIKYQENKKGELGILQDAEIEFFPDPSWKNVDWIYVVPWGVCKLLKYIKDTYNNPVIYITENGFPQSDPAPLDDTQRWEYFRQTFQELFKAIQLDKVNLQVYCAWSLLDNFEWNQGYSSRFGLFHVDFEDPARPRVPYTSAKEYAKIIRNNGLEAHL
UniProt P04062, 40-536 limits assumed: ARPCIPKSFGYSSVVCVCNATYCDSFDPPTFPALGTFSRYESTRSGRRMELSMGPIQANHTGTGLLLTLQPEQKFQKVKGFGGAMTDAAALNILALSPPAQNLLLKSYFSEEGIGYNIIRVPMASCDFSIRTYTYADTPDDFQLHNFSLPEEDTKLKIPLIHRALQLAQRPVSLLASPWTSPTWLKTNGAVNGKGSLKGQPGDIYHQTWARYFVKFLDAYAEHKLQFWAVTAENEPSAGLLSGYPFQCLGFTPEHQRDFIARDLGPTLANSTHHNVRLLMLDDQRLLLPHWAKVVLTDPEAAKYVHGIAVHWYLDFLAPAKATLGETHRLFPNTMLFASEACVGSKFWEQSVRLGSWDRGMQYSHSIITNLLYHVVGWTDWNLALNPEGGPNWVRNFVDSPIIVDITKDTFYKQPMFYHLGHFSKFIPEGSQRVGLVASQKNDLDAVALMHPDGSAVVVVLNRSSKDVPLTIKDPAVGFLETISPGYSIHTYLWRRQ
UniProt P04062, 40-536 R534H limits assumed: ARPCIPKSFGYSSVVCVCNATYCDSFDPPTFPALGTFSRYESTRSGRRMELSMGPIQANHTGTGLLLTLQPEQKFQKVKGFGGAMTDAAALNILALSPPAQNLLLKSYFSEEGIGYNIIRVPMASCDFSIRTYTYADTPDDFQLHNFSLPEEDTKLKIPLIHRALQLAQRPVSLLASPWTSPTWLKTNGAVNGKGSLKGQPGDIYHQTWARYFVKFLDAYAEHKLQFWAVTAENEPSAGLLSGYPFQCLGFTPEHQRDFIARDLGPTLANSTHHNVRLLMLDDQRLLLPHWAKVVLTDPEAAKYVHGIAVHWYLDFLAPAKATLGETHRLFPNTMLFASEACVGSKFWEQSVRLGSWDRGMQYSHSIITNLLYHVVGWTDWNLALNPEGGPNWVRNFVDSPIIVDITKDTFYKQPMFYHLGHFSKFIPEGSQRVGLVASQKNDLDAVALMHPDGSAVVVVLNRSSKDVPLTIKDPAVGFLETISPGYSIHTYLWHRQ

Assays:
[1] = tested on: endogenous GBA1 and overexpressed human GBA2 and GBA3; assay: ABP labeling (ABPP) in lysates of GBA2/GBA3 overexpressing HEK293T cells, selectivity pattern; type: binding; conditions: pH 6.0, 30 min, tested form: bicarbonate
Procedure: (§1) As a negative control, lysates of HEK293T cells with knocked‐out (KO) expression of GBA1 and GBA2 were incubated with a high concentration of each ABP. The observed selectivity patterns of most compounds were in line with the results of the fluorogenic substrate assay except for 50, which labeled GBA1 less potently than expected. […] However, 41 labels GBA3 only at high concentrations and is selective for GBA1 and GBA2 at lower concentrations. In contrast, the dideoxy derivatives all discriminate between the target enzymes, labeling mainly one out of three (53: GBA1, 50: GBA3, and 5: GBA2 and, to a lesser extent, GBA3), alongside significant off‐target labeling at higher concentrations. For instance, besides labeling GBA2 and GBA3 (104.6 kDa and 53.6 kDa respectively), ABP 5 labels three major off‐target proteins (~45 kDa, ~55 kDa, and ~65 kDa), and these bands appear also in the experiments with the other deoxygenated ABPs (Figure 3B). Possibly, the deoxygenated ABPs are more hydrophobic compared to ABPs 1 and 3, causing them to more readily associate with hydrophobic protein patches and subsequently engage in reactions.
(§2) described previously.6,16
(§3) protease inhibitor cocktail (EDTA-free, Roche)).
(§4) The enzymes were incubated with 12.5
(§5) The substrate mixtures diluted in […]

GBA3 = GBA3 (Homo sapiens, UniProt Q9H227); assay: ABP labeling (ABPP) of GBA3 in lysates of GBA2/GBA3 overexpressing HEK293T cells; type: binding; conditions: pH 6.0, tested form: bicarbonate
Procedure: as §1
The optimal conditions for selective GBA3 labeling with 50 were investigated next. […]

recombinant human GBA1 = recombinant human GBA1 (Homo sapiens, UniProt P04062, R534H); assay: ABP labeling (ABPP) on recombinant human GBA1; conditions: tested form: bicarbonate
Procedure: Next, ABPP with 50 was performed on recombinant human GBA1. In contrast to the cell lysate ABPP, 50 labeled GBA1 in these conditions at various pH values (Supporting Information, Figure S2). It was hypothesized that binding of 50 to rhGBA1 is non‐specific, and to investigate this possibility, an ABP labeling on rhGBA1 supplemented with an excess of bovine serum albumin (BSA, 0.1 % w/v) was carried out. Despite the intensive labeling of BSA, effective labeling of rhGBA1 by 50 was retained (Figure 4D). […] Intriguingly, ABP 48 (the structurally closed analogue of 50) labeled GBA1 in HEK293T cell lysates, in line with the results of the fluorogenic substrate assay (Supporting Information, Figure S2).
as §2, §3, §4, §5

GBA1 = GBA1 (Homo sapiens, UniProt P04062); assay: competitive ABPP (cABPP) with 2 in HEK293T cell lysates, GBA1; conditions: tested form: bicarbonate
Description: Some selected compounds were next assessed by competitive ABPP (cABPP) with Bodipy‐tagged compound 2, that allows read‐out and quantification independent of Cy5 excitation and emission ranges. The cABPP experiments confirmed the apparent selectivity of 5 for GBA2/3 over GBA1, while compound 53 was confirmed to target GBA1 selectively over GBA2 and GBA3 (Supporting information, Figure S1). Special attention was given to compound 50 to investigate the discrepancy in results on GBA1 from the fluorogenic substrate assays and ABPP assays. Competitive ABPP with 2 confirmed that GBA1 was not inhibited after incubation of cell lysates of GBA2/GBA3 overexpressing HEK293T cells with 50 for 30 min, nor for 3 h (Figure 4A and B). It was hypothesized that GBA1 was not inhibited due to the competition with unnaturally high levels of GBA2 and GBA3, however after incubation of 50 with wild‐type HEK293T cell lysates, GBA1 activity remained unchanged independent of compound concentration (Figure 4C).
Figure 4 ABP labeling with 50 followed by cABPP with 2 (300 nM) in lysates of HEK293T GBA2/GBA3 overexpressing cells (incubation time (A) 30 min; (B) 3 h); (C) HEK293T WT cells (incubation time 30 min). (D) ABP labeling with 50 in rhGBA1 at pH 6.0 supplemented with 0.1 % (w/v) BSA. (E) cABPP. The sample for lane 2 was pre‐incubated with 2 (300 nM) followed by 50 (10 μM). […]

GBA1, GBA2 and GBA3 = conditions: GBA2/GBA3 overexpressing HEK293T cell lysates; tested form: bicarbonate

Row | Structure (SMILES) | target glucosidases labeled by the ABP [1] | labeling of GBA3 (GBA3) | labeling of rhGBA1 in presence of BSA (recombinant human GBA1; rhGBA1, pH 6.0, supplemented with BSA 0.1 % w/v) | labeling of rhGBA1 (recombinant human GBA1; rhGBA1, various pH values) | GBA1 inhibition in cABPP with 2 (300 nM) (GBA1; lysates of GBA2/GBA3 overexpressing HEK293T cells, incubation 30 min or 3 h) | GBA1 activity in cABPP with 2 (300 nM) (GBA1; wild-type HEK293T cell lysates, incubation 30 min) | selectivity in cABPP with 2 (300 nM) (GBA1, GBA2 and GBA3)
1 | CN1/C(=C/C=C/C=C/C2=[N+](CCCCCC(=O)NCCCCCCCCN3[C@@H]4[C@H](CO)[C@H](O)C[C@@H](O)[C@@H]43)c3ccccc3C2(C)C)C(C)(C)c2ccccc21 (stereo partly shown) | label all three target glucosidases | – | – | – | – | – | –
2 | CN1/C(=C/C=C/C=C/C2=[N+](CCCCCC(=O)NCCCCCCCCN3[C@@H]4[C@H](CO)[C@@H](O)C[C@@H](O)[C@@H]43)c3ccccc3C2(C)C)C(C)(C)c2ccccc21 (stereo partly shown) | label all three target glucosidases | labels GBA3 only at high concentrations | – | – | – | – | –
3 | C[C@H]1[C@@H]2[C@H]([C@H](O)C[C@H]1O)N2CCCCCCCCNC(=O)CCCCC[N+]1=C(/C=C/C=C/C=C2/N(C)c3ccccc3C2(C)C)C(C)(C)c2ccccc21 (stereo partly shown) | GBA3 | – | effective labeling of rhGBA1 by 50 was retained | labeled GBA1 | not inhibited | remained unchanged | –
4 | C[C@H]1[C@@H]2[C@H]([C@H](O)C[C@@H]1O)N2CCCCCCCCNC(=O)CCCCC[N+]1=C(/C=C/C=C/C=C2/N(C)c3ccccc3C2(C)C)C(C)(C)c2ccccc21 (stereo partly shown) | GBA1 | – | – | – | – | – | target GBA1 selectively over GBA2 and GBA3
